Read-outs that look alike come from different tables or passages of the source.
System: patients with transient cerebral ischemic attack (TIA) / cerebral infarction
Method: The present invention will be explained according to the following examples in more detail. However, the scope of the invention is not limited to these examples.
A person. They occurred transient cerebral ischemic attack (TIA). From three days after the onset, treatment with 160 mg/day of Cataclot (Ono Pharmaceutical Co., Ltd.) was started and it was continued for 2 weeks.
A person. They occurred TIA.
A person. They occurred TIA. From three days after the onset, treatment with 81 mg/day of Kids Bufferin (Lion Corporation) was started and this treatment was continued for about one month.
(§1) A person. They occurred cerebral infarction.
A person. They occurred cerebral infarction and, ten months after the occurrence of TIA.
as §1
A person. They occurred cerebral infarction. […] From that day of the onset of TIA, they were hospitalized for one week and subjected to intravenous drip containing 1 g of Nicholin H (Takeda Chemical Industries, Ltd.) and administration of 300 mg/day of Panaldine (Daiichi Pharmaceutical Co., Ltd.).
A person. They occurred cerebral infarction. […] They occurred TIA two years after the onset of cerebral infarction. From that day of the onset of TIA, administration of 200 mg/day of Panaldine (Daiichi Pharmaceutical Co., Ltd.) and, in addition, 162 mg/day of Kids Bufferin (Lion Corporation) was started.
A person. They occurred cerebral infarction. […] Immediately after the recurrence, they were treated with fluid for supplementation, urokinase and 300 mg/day of Panaldine (Daiichi Pharmaceutical Co., Ltd.).

Measured: side effects

COc1cccc(CCc2ccccc2OCC(CN(C)C)OC(=O)CCC(=O)O)c1.Cl (racemic) [sarpogrelate hydrochloride, (±)-1-[O-[2-(m-methoxyphenyl)ethyl]phenoxy]-3-(dimethylamino)-2-propyl hydrogensuccinate hydrochloride]
not observed: 75 mg/day, 337 days, single patients | 150 mg/day, 337 days, single patients | 150 mg/day, 496 days, single patient | 300 mg/day, 337 days, single patients

— patent US20040242687A1, “Thrombus/thrombogenesis inhibitors” (priority 2001, published 2004)
